# Data taken from patent US9233167B2, “Oligomer-opioid agonist conjugates” (NEKTAR THERAPEUTICS, priority 2007, dated 2016).
# By UniProt entry, the sequences of proteins in these tests, tags left out.
# UniProt P41143, whole entry, looked up: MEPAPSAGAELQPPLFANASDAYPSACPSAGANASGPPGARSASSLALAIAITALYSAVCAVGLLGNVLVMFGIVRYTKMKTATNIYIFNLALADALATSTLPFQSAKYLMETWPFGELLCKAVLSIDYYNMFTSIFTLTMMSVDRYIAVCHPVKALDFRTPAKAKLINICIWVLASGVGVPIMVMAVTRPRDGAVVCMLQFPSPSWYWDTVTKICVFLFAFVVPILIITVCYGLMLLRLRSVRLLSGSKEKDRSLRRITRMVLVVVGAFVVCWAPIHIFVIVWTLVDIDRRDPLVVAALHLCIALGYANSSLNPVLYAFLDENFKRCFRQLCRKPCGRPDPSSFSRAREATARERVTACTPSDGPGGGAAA
# Columns and labels:
# [1] = target: recombinant human delta opioid receptor (Homo sapiens (Human), UniProt P41143); details: GTP-γS binding, up to 10 μM
# [2] = Intravenous pharmacokinetics in Sprague-Dawley rats; details: IV 1 mg/kg
substance,measurement,setting,value
6-O-mPEG9-nalbuphine,effect at the delta opioid receptor,[1],weak antagonistic
α-6-mPEG6-O-codeine,mean t1/2 value as multiple of that of the parent molecule,[2],approximately 2.5 times
